AlphaSeq binding of Ab-95 light chain variants to a spike HR2 peptide

Reference: Engelhart et al. 2022, doi:10.1038/s41597-022-01779-4. File: FLAb, binding data.

Binding partner: SARS-CoV-2 spike HR2 peptide, sequence PDVDLGDISGINAS.

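The parent was found by panning a naive human phage display library on the peptide. In library AAYL52, one, two or three CDR residues were substituted; doubles and triples were drawn at random. The scFvs were displayed on barcoded MATa yeast, the peptide on MATalpha yeast. The frequency of each diploid, read from paired DNA barcodes, reflects how well the two displayed proteins bind. Each replicate has its own calibration line, from reference interactions of the BCL2 family. The assay was run in three technical replicates.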

Parent: Ab-95, a human scFv built as VH, the linker GGGGSGGGGSGGGGS, VL. Only the CDRs of the light chain vary.
VH: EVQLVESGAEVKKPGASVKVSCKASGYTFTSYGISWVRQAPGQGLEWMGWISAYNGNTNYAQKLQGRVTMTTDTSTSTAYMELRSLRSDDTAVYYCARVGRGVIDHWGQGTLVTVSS
VL: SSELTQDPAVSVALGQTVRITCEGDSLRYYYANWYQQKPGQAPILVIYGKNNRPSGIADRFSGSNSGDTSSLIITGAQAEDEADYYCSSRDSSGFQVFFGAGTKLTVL

Positions count from residue 1 of the parent VL; R28F puts F in place of R. Numbers give log10(Kd / nM), so 0 is 1 nM and 3 is 1 µM. Smaller is tighter. Where no diploid with the target was found in that replicate, the entry reads "n.d.": below detection, most likely a poor binder, though not proof of it. Nonspecific signal, from three strains lacking the peptide, appeared in 28% of pairings of library AAYL52, centred on 3.91 (5% of these signals below 2.90); values are not corrected for it. Also given: how often the same scFv was detected with the empty control strains, with their mean in brackets.

| # | changes | replicates, log10 nM | signal with controls |
|---|---|---|---|
| 1 | R28F+F95K+Q96P | 3.06 / 3.13 / 2.38 | 3/9 (3.83) |
| 2 | L27Y+A32W+R90Y | 5.81 / 4.35 / n.d. | 1/9 (3.39) |
| 3 | A32M+G49W+F98L | n.d. / n.d. / n.d. | 0/9 |
| 4 | R53Q+Q96P+V97W | 3.42 / 3.53 / 3.08 | 4/9 (3.78) |
| 5 | E23R+D91H+V97A | 2.66 / 3.04 / 2.58 | 3/9 (3.59) |
| 6 | G49L+S88V+S89F | n.d. / 5.58 / n.d. | 4/9 (3.93) |
| 7 | Y30T+G49P+S89L | 3.89 / 4.37 / 4.28 | 4/9 (3.87) |
| 8 | N52F | 2.37 / 2.80 / 2.13 | 3/9 (3.92) |
| 9 | Y30M+R53Y+P54F | 4.39 / 4.69 / n.d. | 4/9 (4.48) |
| 10 | L27A+S89W+V97G | n.d. / 3.76 / 4.16 | 4/9 (4.05) |
| 11 | Y30G+Y31H+R90D | 1.86 / 1.58 / 1.49 | 4/9 (4.64) |
| 12 | G24L+R28T+Q96L | n.d. / 3.95 / n.d. | 2/9 (3.72) |
| 13 | A32K+G49S+S92D | 3.92 / n.d. / n.d. | 2/9 (3.68) |
| 14 | L27A+N33A+S89F | n.d. / n.d. / n.d. | 0/9 |
| 15 | S26V+Y31Q+V97P | 3.13 / 3.28 / 4.37 | 5/9 (3.88) |
| 16 | S26E+N51A+S93Q | n.d. / n.d. / 4.28 | 1/9 (4.45) |
| 17 | Y31T+G94W | n.d. / n.d. / n.d. | 1/9 (4.69) |
| 18 | S26V+A32L+F98A | 4.43 / n.d. / 4.37 | 2/9 (3.67) |
| 19 | P54W+S93E | 3.56 / n.d. / 2.62 | 2/9 (3.44) |
| 20 | R28F+Y29H+Q96E | 3.53 / 3.95 / n.d. | 1/9 (4.26) |
| 21 | N51M+P54G+S89G | 5.50 / n.d. / n.d. | 3/9 (4.10) |
| 22 | G24E+R90P | n.d. / n.d. / n.d. | 1/9 (4.64) |
| 23 | E23L+S26P+F95A | 2.79 / 2.80 / 3.10 | 3/9 (3.92) |
| 24 | Y29D+P54A+F95K | 3.26 / 2.18 / 1.92 | 2/9 (4.62) |
| 25 | L27V+S55N+S88Y | n.d. / n.d. / n.d. | 1/9 (4.42) |
| 26 | D25R+N51M+D91C | 3.92 / 3.54 / 3.34 | 5/9 (4.52) |
| 27 | Y30F+S88T+R90F | n.d. / 4.34 / n.d. | 3/9 (3.58) |
| 28 | P54F+S55F+S88E | n.d. / n.d. / n.d. | 1/9 (4.34) |
| 29 | Y29H+S55G | 2.08 / 1.71 / 1.69 | 3/9 (3.73) |
| 30 | P54K+S88F+R90I | 3.04 / 3.44 / 3.46 | 2/9 (3.55) |
| 31 | E23H+N52V+P54S | 2.24 / 2.32 / 2.06 | 4/9 (4.87) |
| 32 | S26D+N51D+Q96W | 5.36 / n.d. / n.d. | 6/9 (3.62) |
| 33 | N51Q+R53Q+S88V | n.d. / 3.76 / 4.06 | 0/9 |

The 5 strongest on average among those seen in every replicate, once more:

changes	replicates, log10 nM	signal with controls
Y30G+Y31H+R90D	1.86 / 1.58 / 1.49	4/9 (4.64)
Y29H+S55G	2.08 / 1.71 / 1.69	3/9 (3.73)
E23H+N52V+P54S	2.24 / 2.32 / 2.06	4/9 (4.87)
N52F	2.37 / 2.80 / 2.13	3/9 (3.92)
Y29D+P54A+F95K	3.26 / 2.18 / 1.92	2/9 (4.62)